Assay results published in US20250129135A1, “Multi-Agonist and Use Thereof” (priority 2021, published 2025).

Amino acid sequences for entries named in this document (tags omitted). Residues count along the entry.
UniProt P47871, 26-477: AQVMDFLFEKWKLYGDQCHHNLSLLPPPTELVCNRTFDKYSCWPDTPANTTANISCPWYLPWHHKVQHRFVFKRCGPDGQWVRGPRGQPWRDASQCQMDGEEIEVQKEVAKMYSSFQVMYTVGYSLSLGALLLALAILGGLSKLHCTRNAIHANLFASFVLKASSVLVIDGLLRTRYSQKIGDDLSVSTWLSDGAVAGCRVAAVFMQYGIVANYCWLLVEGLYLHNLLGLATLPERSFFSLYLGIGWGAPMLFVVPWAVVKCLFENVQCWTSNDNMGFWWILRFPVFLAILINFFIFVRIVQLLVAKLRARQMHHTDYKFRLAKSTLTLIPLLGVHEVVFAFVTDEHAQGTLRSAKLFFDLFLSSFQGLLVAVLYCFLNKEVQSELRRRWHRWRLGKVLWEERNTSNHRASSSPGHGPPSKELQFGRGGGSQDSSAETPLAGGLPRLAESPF
UniProt P43220, 24-463: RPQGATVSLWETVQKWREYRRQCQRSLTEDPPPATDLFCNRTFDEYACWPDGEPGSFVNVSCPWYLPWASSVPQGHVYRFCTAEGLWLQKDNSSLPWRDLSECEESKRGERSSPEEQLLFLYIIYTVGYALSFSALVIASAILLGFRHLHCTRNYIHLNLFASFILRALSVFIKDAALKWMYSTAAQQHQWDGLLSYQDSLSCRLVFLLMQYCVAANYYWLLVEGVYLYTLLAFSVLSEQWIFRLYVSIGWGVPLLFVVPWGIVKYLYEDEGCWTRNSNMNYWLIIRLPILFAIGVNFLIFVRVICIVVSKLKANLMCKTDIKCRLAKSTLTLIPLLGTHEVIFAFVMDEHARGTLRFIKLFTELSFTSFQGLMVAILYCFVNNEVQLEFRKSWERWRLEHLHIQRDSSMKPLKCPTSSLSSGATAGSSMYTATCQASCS

Legend:
[1] = biological target: T1, Human GIP R (Homo sapiens, UniProt P48546); test: cAMP (HTRF) activity in CHO cells stably overexpressing GIP receptor; type: cell-based; conditions: for Human GIP R Rel. A (Relative Activity): EC50 of human GIP / EC50 of compound
T1 construct: expressed in transfected cells; host or cells: CHO
T1 sequence (P48546 22-466): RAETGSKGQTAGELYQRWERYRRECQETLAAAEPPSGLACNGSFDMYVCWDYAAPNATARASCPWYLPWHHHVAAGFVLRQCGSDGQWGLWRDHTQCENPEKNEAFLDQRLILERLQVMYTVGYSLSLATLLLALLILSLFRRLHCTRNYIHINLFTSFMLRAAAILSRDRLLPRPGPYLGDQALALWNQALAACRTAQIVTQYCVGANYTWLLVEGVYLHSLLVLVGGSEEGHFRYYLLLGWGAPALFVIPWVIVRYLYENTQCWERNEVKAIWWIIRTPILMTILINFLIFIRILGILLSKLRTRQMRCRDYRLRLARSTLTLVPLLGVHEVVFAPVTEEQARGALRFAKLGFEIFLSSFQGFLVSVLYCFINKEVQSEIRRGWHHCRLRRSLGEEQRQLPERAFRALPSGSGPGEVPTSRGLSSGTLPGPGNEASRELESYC
Outline: (§1)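 Cells resuspended in HBSS are incubated with compound for 60 min at room temperature, then with HTRF cAMP detection reagent for a further 60 min. Concentration-response fits give agonist EC50 values in nM.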

[2] = biological target: T2, Human GCG R (Homo sapiens, UniProt P47871); test: cAMP (HTRF) activity in HEK-293 cells stably overexpressing human GCG receptor; type: cell-based; conditions: for Human GCG R Rel. A (Relative Activity): EC50 of human GCG / EC50 of compound
T2 construct: expressed in transfected cells; host or cells: HEK-293
Outline: as §1

[3] = tested on: RIN-m5F cells; type: cell-based, rat; conditions: for EC50: cAMP, at least 3 independent tests, read-out: EC50 on RIN-m5F rat pancreatic islet tumor cells; for Rel. A (Relative Activity) on RIN-m5F: relative to GLP-1(7-37)
Outline: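 cAMP production measured in RIN-m5F cells resuspended in HBSS; compounds incubated 60 min at room temperature, then detection reagent added for a further 60 min before read-out.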

[4] = tested on: 3T3-L1 adipocytes; conditions: for EC50: read-out: EC50 on mouse 3T3-L1 adipocyte, cAMP, at least 3 independent tests; for Rel. A (Relative Activity) on 3T3-L1 adipocyte: relative to GIP
Outline: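 Mouse 3T3-L1 preadipocytes were differentiated with IBMX, dexamethasone and insulin for 5 days, then insulin plus 10 uM rosiglitazone for 3 days, then 10% FBS medium for 2–3 days. Mature adipocytes received 10-point, 3-fold compound dilutions for 60 min at room temperature. cAMP was read by kit detection reagent after a further 60 min, with concentration-effect curves fitted.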

[5] = tested on: human primary liver cells; type: cell-based; conditions: for EC50: cAMP, at least 3 independent tests, read-out: EC50 on human primary liver cells; for Rel. A (Relative Activity) on human primary liver cells: relative to GCG
Outline: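 Human primary hepatocytes, thawed at 37° C and resuspended in HBSS, exposed to compound for 60 min at room temperature. Detection reagent then added for 60 min before cAMP readout.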

[6] = biological target: Human GLP-1R (Homo sapiens, UniProt P43220); test: cAMP (HTRF) activity in HEK-293 cells stably overexpressing human GLP-1 receptor; type: cell-based; parameters: expressed in transfected cells; host or cells: HEK-293; conditions: for Human GLP-1R Rel. A (Relative Activity): EC50 of human GLP-1 (7-37) / EC50 of compound
Outline: as §1

SMILES	EC50 [1]	Human GIP R Rel. A (Relative Activity) [1]	Human GCG R Rel. A (Relative Activity) [2]	EC50 [3]	Rel. A (Relative Activity) on RIN-m5F [3]	EC50 [4]	Rel. A (Relative Activity) on 3T3-L1 adipocyte [4]	EC50 [5]	Rel. A (Relative Activity) on human primary liver cells [5]	EC50 [6]	Human GLP-1R Rel. A (Relative Activity) [6]	EC50 [2]
CC[C@H](C)[C@H](NC(=O)[C@H](Cc1ccccc1)NC(=O)[C@H](C)NC(=O)C(C)(C)NC(=O)[C@H](CCC(N)=O)NC(=O)[C@H](C)NC(=O)[C@H](CCCCNC(=O)COCCOCCNC(=O)COCCOCCNC(=O)CC[C@H](NC(=O)CCCCCCCCCCCCCCCCCCC(=O)O)C(=O)O)NC(=O)[C@H](CCCCN)NC(=O)[C@H](CC(=O)O)NC(=O)[C@H](CC(C)C)NC(=O)[C@](C)(CC(C)C)NC(=O)[C@@H](NC(=O)[C@H](CO)NC(=O)[C@H](Cc1ccc(O)cc1)NC(=O)[C@H](CC(=O)O)NC(=O)[C@H](CO)NC(=O)[C@@H](NC(=O)[C@](C)(Cc1ccccc1)NC(=O)[C@@H](NC(=O)CNC(=O)[C@H](CCC(N)=O)NC(=O)C(C)(C)NC(=O)[C@@H](N)Cc1ccc(O)cc1)[C@@H](C)O)[C@@H](C)O)[C@@H](C)CC)C(=O)N[C@@H](CCC(=O)O)C(=O)N[C@@H](Cc1ccccc1)C(=O)N[C@@H](CC(C)C)C(=O)N[C@@H](CC(C)C)C(=O)N[C@@H](CCC(=O)O)C(=O)N[C@@H](CO)C(=O)N[C@@H](Cc1c[nH]cn1)C(=O)N1CCC[C@H]1C(=O)N[C@@H](CO)C(=O)N[C@@H](CO)C(=O)NCC(=O)N[C@@H](C)C(=O)N1CCC[C@H]1C(=O)N1CCC[C@H]1C(=O)N1CCC[C@H]1C(=O)N[C@@H](CO)C(N)=O [Compound 26]	7 pM	2585.71%	43.85%	401 pM	257.36%	1810 pM	210.29%	2620 pM	148.45%	22 pM	200.00%	–
CC[C@H](C)[C@H](NC(=O)[C@H](Cc1ccccc1)NC(=O)[C@H](C)NC(=O)C(C)(C)NC(=O)[C@H](CCC(N)=O)NC(=O)[C@H](C)NC(=O)[C@H](CCCCNC(=O)COCCOCCNC(=O)COCCOCCNC(=O)CC[C@H](NC(=O)CCCCCCCCCCCCCCCCCCC(=O)O)C(=O)O)NC(=O)[C@H](CCCCN)NC(=O)[C@H](CC(=O)O)NC(=O)[C@H](CC(C)C)NC(=O)[C@](C)(Cc1ccccc1)NC(=O)[C@@H](NC(=O)[C@H](CO)NC(=O)[C@H](Cc1ccc(O)cc1)NC(=O)[C@H](CC(=O)O)NC(=O)[C@H](CO)NC(=O)[C@@H](NC(=O)[C@](C)(Cc1ccccc1)NC(=O)[C@@H](NC(=O)CNC(=O)[C@H](CCC(N)=O)NC(=O)C(C)(C)NC(=O)[C@@H](N)Cc1ccc(O)cc1)[C@@H](C)O)[C@@H](C)O)[C@@H](C)CC)C(=O)N[C@@H](CCC(=O)O)C(=O)N[C@@H](Cc1ccc(O)cc1)C(=O)N[C@@H](CC(C)C)C(=O)N[C@@H](CC(C)C)C(=O)N[C@@H](CCC(=O)O)C(=O)N[C@@H](CO)C(=O)N[C@@H](Cc1c[nH]cn1)C(=O)N1CCC[C@H]1C(=O)N[C@@H](CO)C(=O)N[C@@H](CO)C(=O)NCC(=O)N[C@@H](C)C(=O)N1CCC[C@H]1C(=O)N1CCC[C@H]1C(=O)N1CCC[C@H]1C(=O)N[C@@H](CO)C(N)=O [Compound 27]	23 pM	786.96%	96.61%	252 pM	409.52%	6520 pM	58.28%	9720 pM	40.03%	16 pM	275.00%	–
CC[C@H](C)[C@H](NC(=O)[C@H](Cc1ccccc1)NC(=O)[C@H](C)NC(=O)C(C)(C)NC(=O)[C@H](CCC(N)=O)NC(=O)[C@H](C)NC(=O)[C@H](CCCCNC(=O)COCCOCCNC(=O)COCCOCCNC(=O)CC[C@H](NC(=O)CCCCCCCCCCCCCCCCCCC(=O)O)C(=O)O)NC(=O)[C@H](CCCCN)NC(=O)[C@H](CC(=O)O)NC(=O)[C@H](CC(C)C)NC(=O)[C@](C)(CC(C)C)NC(=O)[C@@H](NC(=O)[C@H](CO)NC(=O)[C@H](Cc1ccc(O)cc1)NC(=O)[C@H](CC(=O)O)NC(=O)[C@H](CO)NC(=O)[C@@H](NC(=O)[C@](C)(Cc1ccccc1F)NC(=O)[C@@H](NC(=O)CNC(=O)[C@H](CCC(N)=O)NC(=O)C(C)(C)NC(=O)[C@@H](N)Cc1ccc(O)cc1)[C@@H](C)O)[C@@H](C)O)[C@@H](C)CC)C(=O)N[C@@H](CCC(=O)O)C(=O)N[C@@H](Cc1ccccc1)C(=O)N[C@@H](CC(C)C)C(=O)N[C@@H](CC(C)C)C(=O)N[C@@H](CCC(=O)O)C(=O)NC(C)(C)C(=O)N[C@@H](Cc1c[nH]cn1)C(=O)N1CCC[C@H]1C(=O)N[C@@H](CO)C(=O)N[C@@H](CO)C(=O)NCC(=O)N[C@@H](C)C(=O)N1CCC[C@H]1C(=O)N1CCC[C@H]1C(=O)NC1(C(=O)N[C@@H](CO)C(N)=O)CC1 [Compound 31]	–	2011.11%	211.11%	274 pM	376.64%	677 pM	561.60%	454 pM	857.05%	12 pM	366.67%	–
CC[C@H](C)[C@H](NC(=O)[C@H](Cc1ccccc1)NC(=O)[C@H](C)NC(=O)C(C)(C)NC(=O)[C@H](CCC(N)=O)NC(=O)[C@H](C)NC(=O)[C@H](CCCCNC(=O)COCCOCCNC(=O)COCCOCCNC(=O)CC[C@H](NC(=O)CCCCCCCCCCCCCCCCCCC(=O)O)C(=O)O)NC(=O)[C@H](CCCCN)NC(=O)[C@H](CC(=O)O)NC(=O)[C@H](CC(C)C)NC(=O)[C@H](Cc1ccccc1)NC(=O)[C@@H](NC(=O)[C@H](CO)NC(=O)[C@H](Cc1ccc(O)cc1)NC(=O)[C@H](CC(=O)O)NC(=O)[C@H](CO)NC(=O)[C@@H](NC(=O)[C@](C)(Cc1ccccc1F)NC(=O)[C@@H](NC(=O)CNC(=O)[C@H](CCC(N)=O)NC(=O)C(C)(C)NC(=O)[C@@H](N)Cc1ccc(O)cc1)[C@@H](C)O)[C@@H](C)O)[C@@H](C)CC)C(=O)N[C@@H](CCC(=O)O)C(=O)N[C@@H](Cc1ccc(O)cc1)C(=O)N[C@@H](CC(C)C)C(=O)N[C@@H](CC(C)C)C(=O)N[C@@H](CCC(=O)O)C(=O)NC(C)(C)C(=O)N[C@@H](Cc1c[nH]cn1)C(=O)N1CCC[C@H]1C(=O)N[C@@H](CO)C(=O)N[C@@H](CO)C(=O)NCC(=O)N[C@@H](C)C(=O)N1CCC[C@H]1C(=O)N1CCC[C@H]1C(=O)NC1(C(=O)N[C@@H](CO)C(N)=O)CC1 [Compound 32]	11 pM	1645.45%	335.29%	208 pM	496.15%	1110 pM	343.76%	580 pM	670.86%	14 pM	314.29%	17 pM
